Read-outs that look alike come from different tables or passages of the source.
Assays:
RMA-S cells = test: Induction of primary CTL responses in vitro with peptide-loaded RMA-S cells; format: cell-based, murine
Protocol: RMA-S or RMA cells were pre-cultured for 36 h at 22° C. or 37° C. in IMDM medium supplemented with 2% human pooled serum, penicillin (100 IU/ml), kanamycin (100 μg/ml), S and 2-ME (2×10^-5 M). The cells were irradiated at 7500 rad or mitomycin C treated (50 μg/ml) in serum-free medium, 2 h at 22° C.), washed three times and subsequently incubated for 4 h with or without synthetic peptides, A16 or S16 or S9, at 22° C. in serum-free IMDM medium. Without further washing these (peptide-loaded) RMA-S cells were incubated 1:1(v/v) with C57BL/6 nylon wool-passed spleen cells (B6 NWP SC) in 24-well culture plates: 4×10^6 responder cells and 1×10^6 stimulator cells in 1 ml of culture medium per well in IMDM medium supplemented with 10% FCS, penicillin (100 IU/ml), kanamycin (100 μg/ml), and 2-ME(2×10^-5 M). For a primary CTL response NWP SC of non-immunized C57BL/6 mice were used.
After 5 days of culture the effectors were harvested on a lymphoprep (Nycomed Pharma, Oslo, Norway) gradient and tested for cytotoxic function on 2000 ^51 Cr-labeled target cells ranging from E/T 50 to E/T 0.8 in twofold dilution steps. The percentage specific ^51 Cr release was calculated by the formula: [formula]
Background (medium) release was always <25% of maximal (2% Triton X-100) release. […] Cytolytic activity calculated from individual dose-response curves is expressed as lytic units per 10^6 effector cells. […]

Protein sequences, listed by entry. Tags and fused reporters are not part of them. Residues count along the entry.
UniProt P01901, 22-369: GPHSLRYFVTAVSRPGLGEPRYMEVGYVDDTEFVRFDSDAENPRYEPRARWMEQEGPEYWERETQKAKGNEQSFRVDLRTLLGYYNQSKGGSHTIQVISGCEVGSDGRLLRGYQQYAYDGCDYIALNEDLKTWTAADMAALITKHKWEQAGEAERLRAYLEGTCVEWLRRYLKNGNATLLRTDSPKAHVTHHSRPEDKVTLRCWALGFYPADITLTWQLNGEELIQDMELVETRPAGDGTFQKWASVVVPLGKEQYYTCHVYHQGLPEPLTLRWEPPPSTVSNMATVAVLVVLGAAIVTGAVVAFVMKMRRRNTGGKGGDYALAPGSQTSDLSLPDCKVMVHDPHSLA

[1] = target: H-2K^b MHC class I molecule (Mus musculus, UniProt P01901); settings: reference 4, cited from earlier work

In the case of FAPGNYPAL [S9], the “fold lower concentration of 9-mer than of 16-mer peptide sufficing for induction of a T cell response” value (RMA-S cells; RMA-S pre-cultured at 22° C., FIG. 2A) is listed as 50 fold, the “fold lower peptide concentration required when RMA-S cells pre-cultured at 22° C. than at 37° C.” value (RMA-S cells; primary CTL response, FIG. 3B) is listed as “About 100 fold” and the “Binding affinity to MHC class I molecules” value [1] is listed as “able to bind with high affinity”. The “Binding affinity to MHC class I molecules” value ([1]; listed as Sendai peptide of 9aa) was “binds with high affinity”.
